Results published in patent publication US9381195B2, “Derivatives of azaindazole or diazaindazole type for treating pain” (PIERRE FABRE MEDICAMENT, priority 2012, dated 2016).

By UniProt entry, the sequences of proteins in these tests, tags left out. Residues count along the entry.
UniProt P04629, 440-796 limits assumed: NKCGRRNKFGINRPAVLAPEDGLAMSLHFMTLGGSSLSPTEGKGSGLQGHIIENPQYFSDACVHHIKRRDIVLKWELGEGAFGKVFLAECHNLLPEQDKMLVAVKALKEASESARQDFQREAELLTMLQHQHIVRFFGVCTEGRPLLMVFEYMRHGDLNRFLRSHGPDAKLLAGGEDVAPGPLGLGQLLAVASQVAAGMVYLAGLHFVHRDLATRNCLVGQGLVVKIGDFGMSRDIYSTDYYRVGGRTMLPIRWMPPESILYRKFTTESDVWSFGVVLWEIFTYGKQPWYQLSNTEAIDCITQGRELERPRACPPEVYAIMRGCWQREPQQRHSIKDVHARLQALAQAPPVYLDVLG
UniProt Q16620, 455-822 limits assumed: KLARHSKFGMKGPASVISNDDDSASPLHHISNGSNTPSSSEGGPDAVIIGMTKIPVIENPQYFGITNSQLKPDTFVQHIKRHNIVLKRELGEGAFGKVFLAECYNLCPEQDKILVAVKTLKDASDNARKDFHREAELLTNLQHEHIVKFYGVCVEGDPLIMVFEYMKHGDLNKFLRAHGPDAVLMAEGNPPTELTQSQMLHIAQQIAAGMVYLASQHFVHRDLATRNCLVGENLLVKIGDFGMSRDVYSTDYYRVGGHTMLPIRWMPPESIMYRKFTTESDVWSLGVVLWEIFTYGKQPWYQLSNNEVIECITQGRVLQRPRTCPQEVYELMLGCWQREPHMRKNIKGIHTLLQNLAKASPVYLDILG

Columns and labels:
TrkA (or NTRK1) = TrkA (or NTRK1) (Homo sapiens, UniProt P04629); assay: In vitro kinase glo plus-based kinase assay, TrkA; format: biochemical; settings: read-out: IC50 (μM) TrkA; comparative experiments; 30 μM ATP
TrkB (or NTRK2) = TrkB (or NTRK2) (Homo sapiens, UniProt Q16620); assay: In vitro kinase glo plus-based kinase assay, TrkB; format: biochemical; settings: read-out: IC50 (μM) TrkB; comparative experiments; 40 μM ATP

- IC50 (TrkA (or NTRK1)): 0.04 µM
- IC50 (TrkB (or NTRK2)): 0.048 µM
SMILES: CN1CCN(c2ccc(C(=O)Nc3n[nH]c4nc(Sc5ccc(F)cc5F)ccc34)cc2)CC1
